Read-outs that look alike come from different tables or passages of the source.
Tests used:
[1] = target: T1, 5-HT6 receptor (Homo sapiens, UniProt P50406); test: In vitro functional activity (antagonism) on human 5-HT6 receptors, CHO-human-5HT6-Aequorin assay; assay type: cell-based; set-up: host or cells: CHO/Gα16/mtAEQ/h5HT6-A1 (CHO AequoScreen recombinant cell line)
[2] = target: T1, 5-HT6 receptor; test: In vitro affinity for human 5-HT6 receptors, [3H]-LSD binding in CHO cell membranes; set-up: host or cells: CHO/Gα16/mtAEQ/h5HT6-A1 (CHO AequoScreen recombinant cell line); settings: 5-HT6 pKi
[3] = 5-HT6 pA2, antagonism of 10^-8 M α-methylserotonin induced luminescence, CHO-human-5HT6-Aequorin cells

Amino acid sequences for entries named in this document (tags omitted).
UniProt P50406, whole entry: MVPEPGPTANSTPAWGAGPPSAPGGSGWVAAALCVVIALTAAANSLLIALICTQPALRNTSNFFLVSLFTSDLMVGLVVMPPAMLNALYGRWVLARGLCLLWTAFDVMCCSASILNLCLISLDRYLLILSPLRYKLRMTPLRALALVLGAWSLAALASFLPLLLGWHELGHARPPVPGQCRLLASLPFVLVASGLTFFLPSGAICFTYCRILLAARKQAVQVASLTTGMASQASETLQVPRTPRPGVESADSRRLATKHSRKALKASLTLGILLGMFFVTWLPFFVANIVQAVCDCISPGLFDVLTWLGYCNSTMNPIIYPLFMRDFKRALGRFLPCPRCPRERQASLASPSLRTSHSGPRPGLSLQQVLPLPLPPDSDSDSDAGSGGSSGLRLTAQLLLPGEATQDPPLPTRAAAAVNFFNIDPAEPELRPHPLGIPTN

CCN/C(=N\S(=O)(=O)c1ccc(Cl)s1)N1CC(CC)C=N1 (single isomer, unassigned; (+)) [(+)-82]
Kb [1, 3]: 0.794 nM
Ki [2]: 2.51 nM

CCN/C(=N\S(=O)(=O)c1ccc(Cl)s1)N1CC(CC)C=N1 (single isomer, unassigned; (-)) [(−)-82]
Kb [1, 3]: 2 nM
Ki [2]: 10 nM

CCN/C(=N\S(=O)(=O)c1cccc(F)c1)N1CC(CC)C=N1 (stereo not shown) [compound 25]
Kb [1, 3]: 10 nM
Ki [2]: 15.8 nM

CCN/C(=N\S(=O)(=O)c1ccccc1)N1CC(C)(C)C=N1 [compound 175]
Kb [1]: 158 nM

Source: patent US8722887B2, “Sulfonylpyrazole and sulfonylpyrazoline carboxamidine derivatives as 5-HT6 antagonists” (Abbvie Bahamas, Ltd., priority 2006, dated 2014)
